Our source for the EC50 of NTSR1 activation, IP1 accumulation assay in NTSR1-CHO cells values is article PMC11149697.

Chains of the proteins cited; added tags and fusions are not shown.
UniProt P30989, whole entry: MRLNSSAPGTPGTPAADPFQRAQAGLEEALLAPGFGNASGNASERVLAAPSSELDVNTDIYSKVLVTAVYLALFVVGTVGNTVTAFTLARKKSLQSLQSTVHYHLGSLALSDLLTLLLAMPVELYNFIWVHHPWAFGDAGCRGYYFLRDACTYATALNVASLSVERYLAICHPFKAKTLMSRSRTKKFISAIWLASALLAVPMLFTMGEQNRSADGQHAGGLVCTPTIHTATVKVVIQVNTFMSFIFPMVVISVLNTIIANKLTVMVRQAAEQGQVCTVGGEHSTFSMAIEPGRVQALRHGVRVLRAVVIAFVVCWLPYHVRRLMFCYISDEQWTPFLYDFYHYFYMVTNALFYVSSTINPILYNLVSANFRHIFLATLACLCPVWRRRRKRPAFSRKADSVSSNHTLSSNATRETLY

The assay deals with neurotensin receptor 1 (NTSR1) (human) (UniProt P30989).

Take Glu1NTS (peptide): the EC50 of NTSR1 activation, IP1 accumulation assay in NTSR1-CHO cells came out at 4 nM.
